Assay results reported in PubChem BioAssay AID504648 (National Center for Advancing Translational Sciences (NCATS), 2011).
Only a part is listed here, and it is no random draw. Records with an inconclusive call do not appear. The source made the active and inactive calls. The call rests on the fitted dose curve; in most records, active means well fitted inhibition curve with a large enough effect; inconclusive means small, poorly fitted or top-dose-only effect, or effect the other way, or another doubt; inactive means no such curve, though single readings can be large or run the other way.

Test: Nrf2 qHTS screen for inhibitors: counterscreen for cytotoxicity
Conditions: A549 ARE-Fluc cells, CellTiter-Fluor viability, 18-24 h; at 46 µM (top of the series)
Excerpt: NIH Molecular Libraries Probe Production Network [MLPCN]
NIH Chemical Genomics Center [NCGC]
Assay Provider: Shyam Biswal, Johns Hopkins University
Nrf2 is a transcription factor that maintains cellular redox homoestasis and protects cells from xenobiotics. Nrf2 binds to the antioxidant response element (ARE) to induce gene expression of a broad spectrum of genes that encode for antioxidants. […] Finding a small molecule that act as an inhibitor of Nrf2 function would represent a novel therapeutic target that could lead to improvement in survival of patients undergoing chemo- and/or radio- therapy.
So here we implemented a counterscreen to weed out the cytotoxic compounds.
1. […]
A concentration-response assay was performed with A549 ARE_Fluc cells which are suspended in 5% FBS OPTI-MEM. […] The plate is then incubated at 37deg C at 5% CO2 for 30 minutes before they are read on the ViewLux (Perkin Elmer) for a fluorescent read Ex=405(10)/Em=525(10) for a 3 second exposure, 2x binning, and high gain. […] Afterwards another ViewLux read is performed using the clear filter to get a luminescent read with the settings of 40 second exposure, 2x binning, and high gain. Cytotoxicity is assessed through the first fluorescent read and then biochemical activity against Nrf2 is measured in the luminescent read.
On the % scale 0 is the no-effect control and ±100 the full control effect.

SMILES | activity change, negative = cytotoxicity
O=C(Nc1cc([As](=O)(O)O)ccc1O)c1ccccc1 | inactive: -1.74%
CC(C)/C=N\N=C(\N)N[N+](=O)[O-] | inactive: 7.03%
